Laboratory results published in patent US20070009965A1, “Novel method for screening for GPCR agonists and/or antagonists from herbs” (Advanced Gene Technology, Corp., priority 2004, published 2007).

Sequences of proteins named here, by UniProt entry; tags and fusion partners are left off.
UniProt P32245, whole entry, species assumed: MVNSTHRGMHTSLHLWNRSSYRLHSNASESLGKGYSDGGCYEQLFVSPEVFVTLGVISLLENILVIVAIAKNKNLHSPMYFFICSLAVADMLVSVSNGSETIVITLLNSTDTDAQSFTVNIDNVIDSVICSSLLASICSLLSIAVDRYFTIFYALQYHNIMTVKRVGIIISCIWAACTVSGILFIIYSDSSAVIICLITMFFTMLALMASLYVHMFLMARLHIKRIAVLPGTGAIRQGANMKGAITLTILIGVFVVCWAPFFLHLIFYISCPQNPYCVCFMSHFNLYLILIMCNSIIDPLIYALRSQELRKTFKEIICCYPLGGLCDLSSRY

Target: MC4R (Homo sapiens, UniProt P32245)
Assay: herbal chip hybridization with MC4R and Cy3-anti-MC4R, fluorescence imaging
Format: binding
Conditions: at least 25 ng/ml NDP-MSH spotted on coated slide; at least 25 μg/ml MC4R; at least 5 μg/ml Cy3-anti-MC4R; laser scanner
Protocol: A coated plastic slide (1) having active epoxy groups on its surface was prepared in accordance with the method disclosed in the Paragraph entitled “Pretreatment of the Plastic Slide and Preparation of the Coated Plastic Slide” under the Example section of U.S. Pat. No. 6,645,719 B2.
In accordance with the teaching of the Paragraph entitled “Loading Samples onto the Coated Plastic Slide in Microarray Format” under the Example section of U.S. Pat. No. 6,645,719 B2, at least 25 ng/ml of α-melanocyte stimulating hormone (NDP-MSH, NH2-Ser-Thr-Ser-Nle-Glu-His-D-Phe-Arg-Trp-Gly-Lys-Pro-Val-OH), that can bind to melanocortin receptors (MCXR), i.e. representatives of GPCRs, were spotted onto the coated plastic slide (1) by Microarrayer BioGrid I (BioRobotic, Cambridge, UK), and then the resultant slide (2) was washed with a blocking buffer (0.1 M sodium borate and 0.1 M ethanolamine) for removing unbound proteins.
In a dark room, under room temperature, at least 25 μg/ml of MC3R, MC4R and MC5R were individually added to the slides (2), and the resultant slides (3) were allowed to stand for 1 hour for completing hybridization. The slides (3) were washed with 1× TBST buffer (50 mM Tris, pH 7.3, 0.15 M NaCl and 0.02% Tween 20) and Milli-Q water, and then dried in an incubator at 37° C. […]

## NH2-Ser-Thr-Ser-Nle-Glu-His-D-Phe-Arg-Trp-Gly-Lys-Pro-Val-OH [NDP-MSH]
  Mean of Fluorescence Intensity (M): 58.50
